Experimental findings from patent publication US9457082B2, “Liposome including complex of hydrophobic active ingredient and polypeptide and use of the liposome” (Samsung Electronics Co., Ltd., priority 2013, dated 2016) are described below.

In the experiment the test system is HepG2 liver carcinoma cells. In words: Absorption of HSA-FITC in cells, fluorescence microscopy. Conditions: HSA-FITC 1.25-10 mg/ml, about 20,000 HepG2 cells, 37° C., 48 hours. Type of experiment: cell-based. On the procedure:
Absorption efficiency of HSA (Abcam)-FITC in cells was confirmed.
In detail, HSA-FITC at a variety of concentrations of 1.25 mg/ml, 2.5 mg/ml, 5 mg/ml and 10 mg/ml was added to about 20,000 HepG2 liver carcinoma cells, followed by being incubated at a temperature of 37° C. for 48 hours. Next, the incubated cells were washed out with PBS. HSA absorbed in the cells was confirmed by a fluorescence microscope, and a graph showing average fluorescence intensity was shown in FIG. 6 (Normalization by Imaging Area, n=5, ANOVA and Tukey's test, mean±SEM, *: P<0.05, **: P<0.01, ***: P<0.001) (x-axis: concentration of HSA-FITC, y-axis: average fluorescence intensity of HSA-FITC).

“HSA: human serum albumin conjugated to fluorescein isothiocyanate (FITC)”: the “absorption in cells (average fluorescence intensity)” value is “efficiently absorbed in the cells”.
